These are literature values, as cited in patent US20220291182A1.

The test system of this series is dogs. The note with it: concentration in air detectable by dogs.

Only a part of the results on these compounds is given; other tests are left out.

2,3-dimethy1-2,3-dinitrobutane: the “detectable by dogs in air” value is on record as “explosives (detectable by dogs at 0.5 ppb in air)”.
